# Cyclic peptide permeability, from CycPeptMPDB

Data: CycPeptMPDB; original report Townsend et al. 2020, doi:10.26434/chemrxiv.13335941.v1.

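Conditions beyond the assay type are not listed; see the original paper. The list need not hold all peptides of the study. Entries at the database's floor value (log10 P of -10) are not listed.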

PAMPA is the parallel artificial membrane permeability assay, which has no cells and reads passive diffusion. Permeability is in 10^-6 cm/s, converted from the database's log10 values; higher is more permeable.

{"smiles": "CCCN1CC(=O)N(C)[C@H](CC(C)C)C(=O)N(C)[C@H](CC(C)C)C(=O)N2CCC[C@@H]2C(=O)N[C@H](CC(C)C)C(=O)N[C@@H](Cc2ccccc2)C(=O)N2CCC[C@H]2C1=O", "PAMPA (10^-6 cm/s)": "1.3"}
{"smiles": "CC(C)C[C@@H]1NC(=O)[C@@H](CC(C)C)N(C)C(=O)[C@@H](C)NC(=O)[C@H](Cc2ccccc2)NC(=O)[C@H](CC(C)C)N(C)C(=O)[C@H]2CCCN2C1=O", "PAMPA (10^-6 cm/s)": "12"}
{"smiles": "CC(C)C[C@@H]1NC(=O)[C@@H](C)N(C)C(=O)[C@H]2CCCN2C(=O)[C@H](Cc2ccccc2)NC(=O)CN(Cc2ccccc2)C(=O)[C@@H]2CCCN2C(=O)[C@H](CC(C)C)N(C)C1=O", "PAMPA (10^-6 cm/s)": "4"}
{"smiles": "CC(C)C[C@@H]1NC(=O)C[C@H](Cc2ccccc2)NC(=O)[C@H]2CCCN2C(=O)[C@H](Cc2ccccc2)NC(=O)[C@@H](CC(C)C)N(C)C(=O)[C@@H]2CCCN2C(=O)[C@H](CC(C)C)NC1=O", "PAMPA (10^-6 cm/s)": "1.4"}
{"smiles": "CC(C)C[C@@H]1NC(=O)[C@@H](CC(C)C)N(C)C(=O)[C@@H](C)NC(=O)[C@H]2CCCN2C(=O)[C@H](Cc2ccccc2)NC(=O)[C@@H](CC(C)C)N(C)C(=O)[C@@H]2CCCN2C1=O", "PAMPA (10^-6 cm/s)": "6.6"}
{"smiles": "CC(C)C[C@@H]1C(=O)N[C@@H](Cc2ccccc2)C(=O)N2CCC[C@@H]2C(=O)N[C@H](C)C(=O)N(C)[C@@H](CC(C)C)C(=O)N[C@H](CC(C)C)C(=O)N2CCC[C@H]2C(=O)N1C", "PAMPA (10^-6 cm/s)": "7.8"}
{"smiles": "CC(C)C[C@H]1NC(=O)C[C@H](Cc2ccccc2)NC(=O)[C@@H]2CCCN2C(=O)[C@H](Cc2ccccc2)NC(=O)[C@@H](CC(C)C)NC(=O)[C@@H]2CCCN2C(=O)[C@@H](CC(C)C)NC1=O", "PAMPA (10^-6 cm/s)": "1.7"}
{"smiles": "CC(C)C[C@@H]1NC(=O)[C@@H](C)N(C)C(=O)[C@H](Cc2ccccc2)NC(=O)[C@@H](CC(C)C)NC(=O)[C@@H]2CCCN2C(=O)[C@H](CC(C)C)NC1=O", "PAMPA (10^-6 cm/s)": "0.44"}
{"smiles": "CCCN1CC(=O)N(C)[C@H](CC(C)C)C(=O)N[C@@H](Cc2ccccc2)CC(=O)N2CCC[C@@H]2C(=O)N(C)[C@H](CC(C)C)C(=O)N[C@@H](Cc2ccccc2)C(=O)N2CCC[C@H]2C1=O", "PAMPA (10^-6 cm/s)": "2.3"}
{"smiles": "CC(C)C[C@@H]1NC(=O)CN(Cc2ccccc2)C(=O)[C@@H](C)N(C)C(=O)[C@H]2CCCN2C(=O)[C@H](Cc2ccccc2)NC(=O)[C@@H](CC(C)C)N(C)C(=O)[C@@H]2CCCN2C1=O", "PAMPA (10^-6 cm/s)": "6.8"}
{"smiles": "CC(C)C[C@@H]1C(=O)N[C@@H](Cc2ccccc2)C(=O)N2CCC[C@@H]2C(=O)N[C@@H](C)C(=O)N(C)[C@@H](CC(C)C)C(=O)N[C@@H](Cc2ccccc2)CC(=O)N2CCC[C@H]2C(=O)N1C", "PAMPA (10^-6 cm/s)": "2.2"}
{"smiles": "CC(C)C[C@@H]1NC(=O)[C@@H](C)N(C)C(=O)[C@@H]2CCCN2C(=O)[C@H](Cc2ccccc2)NC(=O)CN(Cc2ccccc2)C(=O)[C@H]2CCCN2C(=O)[C@@H](CC(C)C)NC1=O", "PAMPA (10^-6 cm/s)": "0.68"}
{"smiles": "CCCN1CC(=O)N[C@@H](CC(C)C)C(=O)N[C@@H](CC(C)C)C(=O)N2CCC[C@@H]2C(=O)N(Cc2ccccc2)CC(=O)N[C@@H](Cc2ccccc2)C(=O)N2CCC[C@H]2C1=O", "PAMPA (10^-6 cm/s)": "3"}
{"smiles": "CC(C)C[C@@H]1NC(=O)[C@@H](CC(C)C)NC(=O)[C@@H](C)N(C)C(=O)[C@H]2CCCN2C(=O)[C@H](Cc2ccccc2)NC(=O)[C@@H](CC(C)C)N(C)C(=O)[C@@H]2CCCN2C1=O", "PAMPA (10^-6 cm/s)": "2.6"}
{"smiles": "CCCN1CC(=O)N[C@H](CC(C)C)C(=O)N[C@@H](CC(C)C)C(=O)N2CCC[C@H]2C(=O)N[C@H](CC(C)C)C(=O)N[C@@H](Cc2ccccc2)C1=O", "PAMPA (10^-6 cm/s)": "5.5"}
{"smiles": "CC(C)C[C@@H]1NC(=O)[C@@H]2CCCN2C(=O)C[C@H](Cc2ccccc2)NC(=O)CN(Cc2ccccc2)C(=O)C[C@H](Cc2ccccc2)NC(=O)[C@H]2CCCN2C(=O)[C@H](Cc2ccccc2)NC1=O", "PAMPA (10^-6 cm/s)": "0.51"}
{"smiles": "CC(C)C[C@@H]1C(=O)N[C@H](CC(C)C)C(=O)N2CCC[C@H]2C(=O)N(Cc2ccccc2)CC(=O)N[C@@H](Cc2ccccc2)C(=O)N[C@H](C)C(=O)N1C", "PAMPA (10^-6 cm/s)": "3"}
{"smiles": "CC(C)C[C@H]1C(=O)N[C@@H](Cc2ccccc2)C(=O)N2CCC[C@@H]2C(=O)N(C)[C@H](C)C(=O)N(Cc2ccccc2)CC(=O)N[C@@H](Cc2ccccc2)CC(=O)N2CCC[C@@H]2C(=O)N1C", "PAMPA (10^-6 cm/s)": "0.4"}
{"smiles": "CC(C)C[C@@H]1NC(=O)[C@H]2CCCN2C(=O)[C@H](CC(C)C)NC(=O)[C@@H](CC(C)C)N(C)C(=O)[C@H](C)N(C)C(=O)[C@@H]2CCCN2C(=O)[C@H](Cc2ccccc2)NC1=O", "PAMPA (10^-6 cm/s)": "1.5"}
{"smiles": "CCCN1CC(=O)N(C)[C@H](CC(C)C)C(=O)N[C@@H](Cc2ccccc2)CC(=O)N2CCC[C@@H]2C(=O)N[C@@H](CC(C)C)C(=O)N[C@@H](Cc2ccccc2)C(=O)N2CCC[C@H]2C1=O", "PAMPA (10^-6 cm/s)": "0.2"}
{"smiles": "CC(C)C[C@@H]1C(=O)N[C@H](CC(C)C)C(=O)N2CCC[C@H]2C(=O)N(Cc2ccccc2)CC(=O)N[C@@H](Cc2ccccc2)C(=O)N2CCC[C@@H]2C(=O)N(C)[C@H](C)C(=O)N1C", "PAMPA (10^-6 cm/s)": "6.9"}
{"smiles": "CC(C)C[C@H]1C(=O)N[C@@H](Cc2ccccc2)C(=O)N2CCC[C@@H]2C(=O)N[C@@H](Cc2ccccc2)CC(=O)N(Cc2ccccc2)CC(=O)N[C@@H](Cc2ccccc2)CC(=O)N2CCC[C@H]2C(=O)N1C", "PAMPA (10^-6 cm/s)": "1.7"}